The record followed here is PubChem BioAssay AID588342 (National Center for Advancing Translational Sciences (NCATS), 2011).

By UniProt entry, the sequences of proteins in these tests, tags left out.
UniProt P08659, whole entry, looked up: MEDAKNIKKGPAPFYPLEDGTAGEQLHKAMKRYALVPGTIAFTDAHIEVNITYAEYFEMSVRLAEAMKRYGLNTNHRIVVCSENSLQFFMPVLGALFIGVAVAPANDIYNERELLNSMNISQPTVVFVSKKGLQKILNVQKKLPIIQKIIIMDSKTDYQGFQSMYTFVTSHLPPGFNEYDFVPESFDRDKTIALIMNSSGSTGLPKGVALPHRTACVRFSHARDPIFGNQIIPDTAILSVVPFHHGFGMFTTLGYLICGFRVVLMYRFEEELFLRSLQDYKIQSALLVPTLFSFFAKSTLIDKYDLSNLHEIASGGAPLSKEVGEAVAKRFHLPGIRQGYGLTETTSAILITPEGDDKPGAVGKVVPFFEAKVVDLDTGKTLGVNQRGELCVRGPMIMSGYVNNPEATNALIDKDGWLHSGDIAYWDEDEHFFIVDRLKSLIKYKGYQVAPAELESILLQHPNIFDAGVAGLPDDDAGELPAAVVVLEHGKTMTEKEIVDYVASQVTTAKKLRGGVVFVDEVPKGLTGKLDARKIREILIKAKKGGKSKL

This is a selection; strong and weak results do not stand in their true shares. Inconclusive results are not listed. The source made the active and inactive calls. Calls come from the whole dose curve; as a rule, active = well fitted inhibition curve with a large enough effect; inconclusive = small, poorly fitted or top-dose-only effect; inactive = flat fitted curve, though single readings scatter.

The experiment has as its target Luciferin 4-monooxygenase (Photinus pyralis) (UniProt P08659). Nature of the experiment: qHTS profiling assay for firefly luciferase inhibitor/activator using purifed enzyme and Km concentrations of substrates (counterscreen for miR-21 project).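 Note: plate controls were vehicle for no effect and reference inhibitor for full effect; nearly all actives have a fitted effect of over 55% in size.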 The following applies: purified FLuc, luminescence inhibition; at 57.5 µM (top of the series). (qHTS replaces the single test concentration by a dilution series.)
As for `O=[As](O)(c1ccc(O)cc1)c1ccccc1O`, the activity change, negative = inhibition is inactive: 6.15%. For the molecule `C[As](=O)(O)c1cccc(C(=O)O)c1`, the activity change, negative = inhibition was inactive: 5.61%. On to `COc1cc(C(=O)NCC2(N3CCOCC3)CCCCC2)ccc1OCC(C)C`, for which the activity change, negative = inhibition is inactive: 3.35%. Consider `Cc1ccc(OP(=O)(Nc2ccc([N+](=O)[O-])cn2)Oc2ccc(C)cc2)cc1`, for which the activity change, negative = inhibition is inactive: 3.01%. With `ClCCSc1nnc(-c2cccnc2)o1`, the activity change, negative = inhibition is inactive: -13.8%. In the case of `CC(C)c1ccc(OP(=O)(Nc2ccccn2)Oc2ccccc2F)cc1` (stereo unspecified), the activity change, negative = inhibition is inactive: -15.8%. Turning to `CCN(CC)C(=S)SC(NC=O)C(Cl)(Cl)Cl` (stereo unspecified), the activity change, negative = inhibition was inactive: -1.14%. As for `CC(C)NC(=O)NP(=O)(Oc1ccccc1)Oc1ccccc1`, the activity change, negative = inhibition was inactive: -2.24%. In the case of `O=[N+]([O-])c1cc([N+](=O)[O-])c(-c2ccn[nH]2)s1`, the activity change, negative = inhibition was inactive: -6.19%. With `O=C(OC1CN2CCC1CC2)C12CC3CC(CC(C3)C1)C2` (stereo unspecified), the activity change, negative = inhibition was inactive: -0.159%.

With `Cc1cc(=O)[nH]c(N[N+](=O)[O-])n1`, the activity change, negative = inhibition is inactive: 4.24%. Under `COc1ccc2nc(NP(=O)(c3ccccc3)c3ccccc3)sc2c1` stands inactive: -8.97%; under `COc1cc(I)ccc1[As](=O)(O)O`, inactive: 0.652%; under `COc1ccc(N/C(=N/P(=O)(N2CCOCC2)N2CCOCC2)N2CCOCC2)cc1`, inactive: 1.48%. With `COP1(=S)c2c(C)nn(CCC#N)c2N=C(c2ccc(F)cc2)N1C` (stereo unspecified), the activity change, negative = inhibition is inactive: 4.78%. `O=C(COc1ccccc1)OC1CN2CCC1CC2` (stereo unspecified): the activity change, negative = inhibition is inactive: 0.253%.

Consider `O=C(Nc1ccncc1[N+](=O)[O-])c1ccc([N+](=O)[O-])cc1[N+](=O)[O-]`, for which the activity change, negative = inhibition is inactive: 2.4%. Turning to `O=C(OC1CN2CCC1CC2)c1cccc([N+](=O)[O-])c1` (stereo unspecified), the activity change, negative = inhibition was inactive: 0.0578%.

For `CCC(C)N(CC(C)C)C(=S)SC(NC(C)=O)C(Cl)(Cl)Cl` (stereo unspecified), the activity change, negative = inhibition is inactive: 0.238%. Under `CCOC(=O)Nc1ccc([As](=O)(O)O)c(O)c1` stands inactive: -0.941%; under `CCCCOc1ccc(C(=O)NCC2(N3CCCCC3)CCCCC2)cc1OC`, inactive: -2.19%; under `Cc1cc(SC(NC(=O)c2ccccc2)C(Cl)(Cl)Cl)nc(C(C)C)n1` (stereo unspecified), inactive: 2.97%. For the molecule `CCOC(=O)Nc1cccc([As](=O)(O)O)c1`, the activity change, negative = inhibition is inactive: -3%.

In the case of `O=P(Nc1ccccn1)(c1cccc2ccccc12)c1cccc2ccccc12`, the activity change, negative = inhibition was inactive: -7.86%.

For the molecule `Cc1cc(SC(NC=O)C(Cl)(Cl)Cl)ncn1` (stereo unspecified), the activity change, negative = inhibition was inactive: -4.93%. `O=[N+]([O-])c1ccc(Nc2ccc(Oc3ccc([N+](=O)[O-])cc3[N+](=O)[O-])cc2)c([N+](=O)[O-])c1`: the activity change, negative = inhibition was inactive: 1.43%. For `Cc1nn(-c2ccccc2)c2c1P(=O)(N1CCOCC1)N(C)C(c1ccccc1)=N2` (stereo unspecified), the activity change, negative = inhibition was inactive: -1.87%.

For `CC1CCC(C(C)C)C(OP(=O)(Nc2ccccn2)c2ccccc2)C1` (stereo unspecified), the activity change, negative = inhibition was inactive: -4.74%. The same measure for `Cc1ccc(C(=O)OC2CN3CCC2CC3)cc1` (stereo unspecified): inactive: 1.92%; for `CN(C)C1(CNC(=O)c2ccc(S(C)(=O)=O)cc2)CCCCC1`: inactive: 1.1%; for `O=C(/C=C/c1ccccc1)OC1CN2CCC1CC2` (stereo unspecified): inactive: -3.32%.

Take `O=P1(Nc2ncccn2)COc2ccccc2OC1`: the activity change, negative = inhibition is inactive: -0.309%. For the molecule `Nc1cccc([As](=O)(O)c2ccccc2)c1`, the activity change, negative = inhibition is inactive: -0.424%.

`O=P1(Nc2ccc(Br)cn2)COc2ccccc2OC1`: the activity change, negative = inhibition is inactive: 3.51%. As to `NS(=O)(=O)c1cccc(NC(=O)COC(=O)C(O)(c2ccccc2)c2ccccc2)c1`, the activity change, negative = inhibition is inactive: 1.77%. For `O=[As](O)(c1cccs1)c1cccs1`, the activity change, negative = inhibition is inactive: 0.937%. The same measure for `Cc1ccc(OCC(=O)OC2CN3CCC2CC3)cc1` (stereo unspecified): inactive: -5.26%. For `O=P1(Nc2ccccn2)COc2ccccc2OC1`, the activity change, negative = inhibition is inactive: -1.03%. For the molecule `CCC1=CC2Cc3nc4ccc(Cl)cc4c(N)c3C(C1)C2` (stereo unspecified), the activity change, negative = inhibition was inactive: 1.49%. `CCOP(=O)(NC(=NC(C)c1ccccc1)NC(C)c1ccccc1)OCC` (stereo unspecified): the activity change, negative = inhibition was inactive: 2%.

In the case of `CCOP(=O)(Nc1ccc(C)cn1)OCC`, the activity change, negative = inhibition was inactive: -0.755%. The same measure for `Clc1n[nH]nc1-c1nn[nH][15n]1`: inactive: -2.76%; for `CC(C)(C)C(=O)NC(Sc1ncccn1)C(Cl)(Cl)Cl` (stereo unspecified): inactive: -1.54%; for `COc1ccccc1CNC(=O)COC(=O)C(O)(c1ccccc1)c1ccccc1`: inactive: 2.92%. For `CC(C)/C=N\N=C(\N)N[N+](=O)[O-]`, the activity change, negative = inhibition is inactive: -0.0504%.

Turning to `CN(C(=O)Cc1ccc(Cl)c(Cl)c1)[C@@H]1CCCC[C@H]1N1CCCC1`, the activity change, negative = inhibition is inactive: 1.77%.

Consider `O=[As](O)(c1ccccc1Br)c1ccccc1Br`, for which the activity change, negative = inhibition is inactive: 1.58%.

`O=C(OC1CN2CCC1CC2)c1ccc(Cl)cc1` (stereo unspecified): the activity change, negative = inhibition was inactive: -1.59%.

Consider `COc1cc(C(=O)NCC2(N3CCOCC3)CCCCC2)cc(Cl)c1OC(C)C`, for which the activity change, negative = inhibition was inactive: -1.35%.

`O=[As](O)(O)c1cccnc1`: the activity change, negative = inhibition is inactive: -4.57%.

As to `CS(=O)(=O)c1ccc(Cl)c(NC(=O)COC(=O)C(O)(c2ccccc2)c2ccccc2)c1`, the activity change, negative = inhibition is inactive: 2.2%. For `O=[As](O)(c1cccc(O)c1)c1cccc(O)c1`, the activity change, negative = inhibition was inactive: -0.0681%. Consider `Cc1cccc(OCC(=O)OC2CN3CCC2CC3)c1` (stereo unspecified), for which the activity change, negative = inhibition was inactive: 0.195%. Under `Nc1cccc2c([As](=O)(O)O)cccc12` stands inactive: -2.31%; under `Cc1ccc(NCCc2c([N+](=O)[O-])cc([N+](=O)[O-])cc2[N+](=O)[O-])cc1`, inactive: -10.9%; under `CCCOP(=S)(Nc1nc(N)cc(=O)[nH]1)OCCC`, inactive: -4.57%. Turning to `COc1cc(C2NCCC3(OCCO3)C2(C)C)cc(OC)c1OC` (stereo unspecified), the activity change, negative = inhibition was inactive: 0.816%. For the molecule `CCOP(=O)(Nc1cccc2ccccc12)OCC`, the activity change, negative = inhibition was inactive: 2.27%. On to `CCOP1(=S)c2c(C)nn(CCC#N)c2N=C(c2ccccc2F)N1C` (stereo unspecified), for which the activity change, negative = inhibition was inactive: -0.0537%.

Take `O=P(Nc1nccs1)(Oc1ccccc1)Oc1ccccc1`: the activity change, negative = inhibition was inactive: -15.4%. Under `Nc1ccccc1[As](=O)(O)c1ccccc1` stands inactive: -2.15%; under `O=C(O)COc1ccc([As](=O)(O)O)cc1[N+](=O)[O-]`, inactive: 1.15%. Consider `NC(=O)Nc1ccc([As](=O)(O)O)cc1`, for which the activity change, negative = inhibition was inactive: -0.397%. The same measure for `N#CCCN(C(=O)COC(=O)C(O)(c1ccccc1)c1ccccc1)c1ccc(F)cc1`: inactive: -0.615%; for `CCOP1(=S)c2c(C)nn(CCC#N)c2N=C(c2ccc(F)cc2)N1C` (stereo unspecified): inactive: 1.62%; for `CN(C(=O)Cc1ccccc1)[C@@H]1CC[C@]2(CCCO2)C[C@H]1N1CCCC1`: inactive: 0.442%. The same measure for `O=[N+]([O-])c1ccc2c(c1)nnn2O`: inactive: 5.07%; for `c1ccc(-c2nn[nH]n2)c(-c2nn[nH]n2)c1`: inactive: -8.4%; for `CCOC(=O)NC(Sc1ccccc1)C(Cl)(Cl)Cl` (stereo unspecified): inactive: 2.62%.

With `Cc1ccc(NP(=O)(Oc2cccc(C)c2)Oc2cccc(C)c2)nc1`, the activity change, negative = inhibition is inactive: 1.45%.

As for `CCNC(=S)/N=C(\N)N[N+](=O)[O-]`, the activity change, negative = inhibition was inactive: 0.239%.

In the case of `O=C(NC1CCS(=O)(=O)C1)NP(=S)(Oc1ccccc1)Oc1ccccc1` (stereo unspecified), the activity change, negative = inhibition is inactive: -8.8%. Under `O=C(OC1CN2CCC1CC2)c1ccccc1` (stereo unspecified) stands inactive: 0.669%. For the molecule `CCC(=O)N1C2C3N(C(=O)CC)C1C1N(C(=O)CC)C(C(N1C(=O)CC)N3C(=O)CC)N2C(=O)CC`, the activity change, negative = inhibition is inactive: 7.03%.

`COC(=O)c1cc2c(s1)N=C(c1ccccc1)N(C)P2(=O)N1CCOCC1` (stereo unspecified): the activity change, negative = inhibition was inactive: 3.61%. As to `Cc1ccc(OP(=O)(Nc2ccccn2)Oc2ccc(C)cc2)cc1`, the activity change, negative = inhibition was inactive: 4.22%. On to `CC(=O)NC(SC(=S)N(CC(C)C)CC(C)C)C(Cl)(Cl)Cl` (stereo unspecified), for which the activity change, negative = inhibition is inactive: -2.36%. Consider `Cc1ccccc1OP(=O)(Nc1ccccn1)Oc1ccccc1C`, for which the activity change, negative = inhibition was inactive: -0.989%. Under `CN(C)C(=O)Oc1noc2ccccc12` stands inactive: -1.65%; under `CC(C)(C)C(=O)NC(Sc1ccccc1)C(Cl)(Cl)Cl` (stereo unspecified), inactive: -7.26%. Consider `C[C@@H]1C=CCP(=O)(Oc2ccccc2)O1` (stereo partly specified), for which the activity change, negative = inhibition is inactive: 4.79%. As for `C[C@H]1OP(=O)(Oc2ccccc2)C[C@@H]2O[C@@H]21` (stereo partly specified), the activity change, negative = inhibition is inactive: 0.376%. Under `CC(=O)c1ccc(N2CC2c2ccncc2)cc1` (stereo unspecified) stands inactive: 4.73%; under `CC(=O)Nc1ccc([As](=O)(O)O)c(O)c1`, inactive: 1.67%; under `CC(C)C(=O)NC(Sc1ccccc1)C(Cl)(Cl)Cl` (stereo unspecified), inactive: -0.93%. For the molecule `O=P(Nc1nccs1)(c1ccccc1)c1ccccc1`, the activity change, negative = inhibition is inactive: -1.52%. `c1nnnn1CCn1cnnn1`: the activity change, negative = inhibition was inactive: -0.958%.

With `O=P(Nc1ccccn1)(c1ccc(Br)cc1)c1ccc(Br)cc1`, the activity change, negative = inhibition is inactive: -1.99%.

In the case of `CN(C)C1(CNC(=O)c2ccc(Cl)c(S(N)(=O)=O)c2)CCCCC1`, the activity change, negative = inhibition is inactive: -1.87%. For `O=P(Nc1nc2ccccc2s1)(c1ccccc1)c1ccccc1`, the activity change, negative = inhibition is inactive: -16%. The same measure for `C[C@H]1OP(=O)(Oc2ccccc2)[C@H](O)[C@H](O)[C@H]1N=[N+]=[N-]` (stereo partly specified): inactive: -2.38%; for `O=[As](O)(c1ccccc1)c1ccc(O)cc1`: inactive: 5.75%; for `O=[N+]([O-])c1ccc(O)c(/C=N/Nc2ccc([N+](=O)[O-])cc2[N+](=O)[O-])c1`: inactive: -12.6%.

On to `O=[N+]([O-])c1ncn(CCn2cnc([N+](=O)[O-])n2)n1`, for which the activity change, negative = inhibition is inactive: -0.0414%. With `CC(=O)NC(SC(=S)N(C)C)C(Cl)(Cl)Cl` (stereo unspecified), the activity change, negative = inhibition is inactive: -15.9%. Take `O=C(OC1CN2CCC1CC2)c1cccc(Cl)c1` (stereo unspecified): the activity change, negative = inhibition is inactive: 1.92%.

Regarding `Nc1ccc([As](=O)(O)c2ccc([N+](=O)[O-])cc2)cc1`, the activity change, negative = inhibition is inactive: -0.447%. With `C(Cc1nn[nH]n1)Cc1nn[nH]n1`, the activity change, negative = inhibition was inactive: -1.3%. The same measure for `O=C(Nc1cc([As](=O)(O)O)ccc1O)c1ccccc1`: inactive: 1.81%.

Take `O=[N+]([O-])c1ncn(CCn2ncnc2[N+](=O)[O-])n1`: the activity change, negative = inhibition is inactive: -1.32%.

Turning to `CC(C)(C)C(=O)NC(Sc1ccncn1)C(Cl)(Cl)Cl` (stereo unspecified), the activity change, negative = inhibition is inactive: 1.47%.
